Molecular target: P2Y purinoceptor 1 (Meleagris gallopavo, UniProt P49652)
Test: Agonist activity at turkey P2Y1 receptor expressed in human […] receptor assessed as induction of intracellular calcium mobilization
Format: functional, cell-based
Outline: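 1321N1 astrocytoma cells stably expressing turkey P2Y1, grown in DMEM with 5% FBS and G-418. Fura-2-loaded cell suspensions were treated at 37 °C in 10 mM HEPES-buffered saline (pH 7.4) with 1 mM CaCl2 and 1 mM MgCl2. Maximal [Ca2+]i rise was read by dual-excitation spectrofluorometry across concentrations, and EC50 was fitted from the curves. Three experiments in triplicate.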

Protein sequences, listed by entry. Tags and fused reporters are not part of them. Lines headed by an entry give the natural chain unless they say otherwise; changes in a name come on top.
UniProt P49652: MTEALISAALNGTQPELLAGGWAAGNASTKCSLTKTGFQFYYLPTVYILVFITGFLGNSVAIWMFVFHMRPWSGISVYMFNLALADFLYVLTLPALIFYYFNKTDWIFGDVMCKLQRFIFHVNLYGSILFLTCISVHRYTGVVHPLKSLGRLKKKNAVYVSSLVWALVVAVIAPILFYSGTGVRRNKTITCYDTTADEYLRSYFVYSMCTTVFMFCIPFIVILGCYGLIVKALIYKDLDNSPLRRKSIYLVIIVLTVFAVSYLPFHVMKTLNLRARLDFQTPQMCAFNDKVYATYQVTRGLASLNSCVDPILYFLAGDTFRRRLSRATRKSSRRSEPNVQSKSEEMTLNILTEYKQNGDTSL

`CSc1nc(N)c2ncn([C@@H]3O[C@H](COP(=O)(O)OP(=O)(O)O)[C@@H](O)[C@H]3O)c2n1` was tested, and the EC50 was 2.5 nM.

Source: ChEMBL document CHEMBL1156201, “2-MeS-beta,gamma-CCl2-ATP is a potent agent for reducing intraocular pressure” (J Med Chem, 2010)
